Experimental findings from ChEMBL document CHEMBL3400139, “trans-(3S,4S)-Disubstituted pyrrolidines as inhibitors of the human aspartyl protease renin. Part I: prime site exploration using an amino linker” (Bioorg Med Chem Lett, 2015) are described below.

Molecules are shown by their SMILES. Bounds are passed on as bounds.

In general, efflux ratio refers to a quotient of directional permeabilities that is used to spot active efflux. Usually half-life stands for how long it takes for the measured level to halve. A low value points to fast loss.

Data set [1] can be described thus: Efflux ratio of permeability from basolateral to apical side over apical to basolateral side in human Caco2 cells. It counts as ADME, cell-based. The settings on record: Caco-2.
For another data set, the species on record is Homo sapiens. Put plainly: Half life in human liver microsomes using compound depletion approach. (In general: Liver microsomes are a subcellular fraction often used to study metabolism.)
Data set [2] is described as follows: Half life in rat liver microsomes using compound depletion approach. It counts as ADME.

For `COCCCOc1cc(C(=O)N(C[C@@H]2CNC[C@H]2NC(=O)CCc2ccccc2)C(C)C)ccc1OC` (racemic), in data set [1], the efflux ratio is 1.4. In the data set listed under Homo sapiens, this compound returned a half-life of 22.3 min.
Take `COCCCOc1cc(C(=O)N(C[C@@H]2CNC[C@H]2NS(=O)(=O)CC2CCOCC2)C(C)C)ccc1OC`: the half-life (in data set [2]; in the data set filed under Homo sapiens) was over 65 min in each case.
On to `COCCCOc1cc(C(=O)N(C[C@@H]2CNC[C@H]2NS(=O)(=O)Cc2ccccc2)C(C)C)ccc1OC`, for which the efflux ratio in data set [1] is 62. Further, the half-life in the data set listed under Homo sapiens came to 17.4 min.
With `COCCCOc1cc(C(=O)N(C[C@@H]2CNC[C@H]2NCc2ccc3ccccc3c2)C(C)C)ccc1OC`, the efflux ratio in data set [1] amounted to 110. Moreover, the half-life in the data set listed under Homo sapiens came out at 11.3 min.
The corresponding values for `COCCCOc1cc(C(=O)N(C[C@@H]2CNC[C@H]2NC(=O)OCC2CCCCC2)C(C)C)ccc1OC` are 8 and 11.3 min.
Take `COCCCOc1cc(C(=O)N(C[C@@H]2CNC[C@H]2NC(=O)CC2CCOCC2)C(C)C)ccc1OC`: the half-life (in data set [2]; in the data set filed under Homo sapiens) was over 65 min in each case.
